For 50 molecules, inhibition results are on record in PubChem BioAssay AID651572 (The Scripps Research Institute Molecular Screening Center, 2012).

Chains of the proteins cited; added tags and fusions are not shown. Residues count along the entry.
UniProt Q62848, 1-136 limits assumed: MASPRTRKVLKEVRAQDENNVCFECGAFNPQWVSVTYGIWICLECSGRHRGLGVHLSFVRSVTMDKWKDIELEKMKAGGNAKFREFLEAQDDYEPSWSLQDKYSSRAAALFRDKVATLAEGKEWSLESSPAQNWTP

The structures appear in SMILES notation. The list shows a part of the results, in another mix than the full data. Some salts or complexes appear as unconnected parts, following the source record. Active and inactive are the calls of the source.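 The calls were made as follows: active = inhibition above a per-plate limit, mean inhibition of low control wells plus 3 SD (cut at about 25% in these data); inactive = the rest.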

The term inhibition denotes the relative decrease from the control value, in per cent.

The target in the assay is ADP-ribosylation factor GTPase-activating protein 1 (Rattus norvegicus) (UniProt Q62848). The assay can be described thus: blockers of ARFGAP1-stimulated ARF1 GTP hydrolysis – biochemical, fluorescence polarization, GDP tracer, primary screen (AID 651572).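 Also: 0% = DMSO wells with enzyme and 100% = wells lacking Arfgap1.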 The settings on record: GDP FP detection, at 16.5 µM, hits give high values. The essentials:
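Repeats: one replicate per compound; assay system: rat Arfgap1 catalytic domain, aa 1-136; times: enzyme reaction 120 min at 25 °C after 20 min preincubation; detection: FP of antibody-bound GDP Alexa 633 tracer, ex 620/em 688 nm; benchmarks: high control wells lacking Arfgap1, low control full reaction with DMSO; reagent: human ARF1(Δ1-17)-GTP substrate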
(Fluorescence polarisation rises when a labelled molecule tumbles more slowly, as on binding a larger partner.)
For `CCOP(=O)(CC)OCC`, the inhibition is inactive: -8.11%.
Regarding `O=[N+]([O-])c1ccc(OP2(=O)COCCO2)cc1` (stereo not given), the inhibition is inactive: 3.81%.
Under `O=[N+]([O-])c1cc([N+](=O)[O-])c(NCC2CCS(=O)(=O)C2)c([N+](=O)[O-])c1` (stereo not given) stands inactive: 2.32%; under `Cc1cc(-c2cccc3ccccc23)c(C)cn1.O=[N+]([O-])c1cc([N+](=O)[O-])c(O)c([N+](=O)[O-])c1`, inactive: 3.94%; under `Cc1c(C(c2ccc3c(c2)OCO3)c2c(C)n(C)n(-c3ccccc3)c2=O)c(=O)n(-c2ccccc2)n1C.O=[N+]([O-])c1cc([N+](=O)[O-])c(O)c([N+](=O)[O-])c1`, inactive: 6.88%.
Turning to `COc1ccc(OP(C)(=O)Nc2cccc(Br)c2)cc1` (stereo not given), the inhibition is inactive: 0.15%.
Under `CN(C)CCOC(=O)C(O)(c1ccccc1)C1CCCCC1` (stereo not given) stands inactive: 3.32%; under `COc1ccc(NP(C)(=O)Oc2ccccc2OC)cc1` (stereo not given), inactive: -2.14%; under `Cc1c([N+](=O)[O-])cc([N+](=O)[O-])c(Br)c1[N+](=O)[O-]`, inactive: 4.48%.
Under `CCN(CC)CCCOC(=O)C(O)(c1ccccc1)C1CCCCC1` (stereo not given) stands inactive: 5.2%.
Under `CP(=O)(Nc1ccccc1)Oc1ccc(F)cc1` (stereo not given) stands inactive: 6.12%; under `O=[N+]([O-])c1cc([N+](=O)[O-])c(OC2CCCCC2O)c([N+](=O)[O-])c1` (stereo not given), inactive: 3.38%.
As for `CCCCCOc1ccc(NP(C)(=O)Oc2ccc(Cl)cc2Cl)cc1` (stereo not given), the inhibition was inactive: 8.14%.
Under `CCN(CC)CCCNc1ccccc1[N+](=O)[O-].O=[N+]([O-])c1cc([N+](=O)[O-])c(O)c([N+](=O)[O-])c1` stands inactive: 4.13%.
Under `CCOC(=O)c1ccc(NP(C)(=O)Oc2ccc(F)cc2)cc1` (stereo not given) stands inactive: -7.78%; under `COc1ccc(OP(C)(=O)Nc2ccc(SC(F)(F)F)cc2)cc1` (stereo not given), inactive: 1.06%.
Under `O=C(OC1CN2CCC1CC2)c1ccc([N+](=O)[O-])cc1` (stereo not given) stands inactive: 2.63%; under `O=C(OCCN1CCN(CCOCc2ccccc2)CC1)C(O)(c1ccccc1)c1ccccc1`, inactive: -11%; under `COc1ccc2c(c1O)-c1c(O)c(OC)cc3c1[C@H](C2)[N+](C)(C)CC3.O=[N+]([O-])c1cc([N+](=O)[O-])c([O-])c([N+](=O)[O-])c1[O-]`, inactive: 3.13%.
For `O=[N+]([O-])c1cc([N+](=O)[O-])c(Nc2ccc(Cl)cc2)c([N+](=O)[O-])c1`, the inhibition is inactive: -19.2%.
Consider `CP(=O)(Nc1ccccc1F)Oc1ccccc1` (stereo not given), for which the inhibition was inactive: -3.24%.
Under `CC(C)c1ccc(OP(C)(=O)Nc2ccc(SC(F)(F)F)cc2)cc1` (stereo not given) stands inactive: 5.07%; under `O=[N+]([O-])c1cc([N+](=O)[O-])c(Nc2ccccn2)c([N+](=O)[O-])c1`, inactive: -3.11%.
Under `Cc1c(NP(C)(=O)Oc2ccc(C(C)C)cc2)c(=O)n(-c2ccccc2)n1C` (stereo not given) stands inactive: -3.17%; under `CP(=O)(Nc1ccccn1)Oc1ccccc1` (stereo not given), inactive: -1.82%.
For `COc1ccccc1OP(C)(=O)Nc1ccc(C)cc1C` (stereo not given), the inhibition is inactive: 13.3%.
Under `CCc1ccc(OP(C)(=O)O)cc1` stands inactive: -1.47%; under `COc1ccccc1OP(C)(=O)Nc1ccc(Br)cc1` (stereo not given), inactive: -6.75%; under `COc1ccc(OP(C)(=O)Nc2ccccn2)cc1` (stereo not given), inactive: 0.73%.
For `CN(C)CCOC(=O)C(O)(c1ccccc1)C1CCCC1` (stereo not given), the inhibition is inactive: -1.23%.
Under `CP(=O)(OCCOc1ccccc1)OCCOc1ccccc1` stands inactive: 3.93%; under `CP(=O)(Nc1ccc(Cl)cc1Cl)Oc1ccccc1` (stereo not given), inactive: 6.2%.
Under `CCCCCCCCCCCCCCCC1C[N+](C)(C)CCOP(C)(=O)O1` (stereo not given) stands inactive: -16.8%.
Under `O=C1C(O)=C([N+](=O)[O-])C(=O)C(O)=C1[N+](=O)[O-]` stands inactive: -1.78%.
For the molecule `Cc1cc(C)cc(OP(C)(=O)Nc2cccc(C(F)(F)F)c2)c1` (stereo not given), the inhibition is inactive: 0.31%.
As for `COc1ccccc1OP(C)(=O)Nc1ccc(C)c(C)c1` (stereo not given), the inhibition is inactive: -2.69%.
Under `COc1ccc(OP(C)(=O)Nc2ccccc2Br)cc1` (stereo not given) stands inactive: 6.43%; under `Nc1ccc2c(ccc3cccnc32)n1.O=[N+]([O-])c1cc([N+](=O)[O-])c(O)c([N+](=O)[O-])c1`, inactive: 8.72%; under `CCOC(=O)c1ccc(NP(C)(=O)Oc2ccc(Cl)cc2)cc1` (stereo not given), inactive: 3.94%.
Under `CP(=O)(OC12CC3CC(CC(C3)C1)C2)OC12CC3CC(CC(C3)C1)C2` stands inactive: -12.4%; under `CC(C)(C)c1ccc(OP(C)(=O)O)cc1`, inactive: -1.54%.
As to `COc1ccccc1OP(C)(=O)Nc1ccccc1Br` (stereo not given), the inhibition is inactive: 2.54%.
Under `CP(=O)(Nc1ccc(Cl)cc1)Oc1ccc(F)cc1` (stereo not given) stands inactive: 0.58%.
Under `CN(C)C(=O)c1c([N+](=O)[O-])cc([N+](=O)[O-])cc1[N+](=O)[O-]` stands inactive: 2.4%; under `CCN(CC)CC(O)COC(=O)C(O)(c1ccccc1)C1CCCCC1` (stereo not given), inactive: 6.84%; under `COc1ccc(OP(C)(=O)Nc2ccc(Br)cc2)cc1` (stereo not given), inactive: 13.6%.
Under `COc1ccccc1OP(C)(=O)Nc1c(C)n(C)n(-c2ccccc2)c1=O` (stereo not given) stands inactive: -9.73%.
As for `O=C(OCCCN1CCCC1)C(O)(c1ccccc1)C1CCCCC1` (stereo not given), the inhibition is inactive: -9.94%.
Under `CP(=O)(Oc1ccccc1)N1CCOC1=O` (stereo not given) stands inactive: -7.77%; under `CCc1ccc(OP(C)(=O)Nc2cccnc2)cc1` (stereo not given), inactive: 1.42%.
